TDP1 cell CPT: DT40-hTDP1 cell growth loss with CPT; chicken DT40 Tdp1-/-;hTDP1 cells + 20 nM CPT, ATP luminescence, 48 h; Potency, µM (titrated, usually from 46.2 µM), usual class: inhibitors; actives 12% (n = 420,000); AID 686979; also: nearly all actives have a fitted effect of over 55% in size
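Cell growth measured by CellTiter-Glo luminescence after a minimum 48 h, 37 C compound exposure with 20 nM CPT in Tdp1-knockout DT40 cells stably expressing hTDP1, seeded 400/well; qHTS titration format.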
miR-21 reporter: raises the signal of a miR-21 reporter; 340,000 tested, under 10 active; HeLa miR-21 FLuc reporter, luciferase, 48 h; Potency, µM (highest dose often 38.3 µM); active = well fitted rising curve with a large enough effect; inconclusive = small, poorly fitted or top-dose-only effect; inactive = no such curve, though single readings can be large or run the other way;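 also: miR-21 action dims this reporter so a rising signal means less miR-21 action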
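Compounds were titrated across several concentrations (up to approximately 40 uM) and incubated 48 hours with HeLa miR-21-FLuc reporter cells (miR-21 target sequence downstream of FLuc, endogenous miR-21). Readout was firefly luciferase luminescence after lytic detection reagent.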
TDP1 cell noCPT: qHTS for Inhibitors of human tyrosyl-DNA phosphodiesterase 1 (TDP1): qHTS in cells in absence of CPT; DT40 Tdp1-/- hTDP1 cells, no CPT, ATP luminescence, 48 h; Potency, µM (top dose mostly 46.2 µM), hits mostly inhibitors; actives 15% (n = 420,000); also: nearly all actives have a fitted effect of over 55% in size
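Camptothecin absent (DMSO only). Human TDP1-complemented DT40 knockout cells, 400 cells/well, 37 °C for minimum 48 hr; ATP measured via CellTiter-Glo, 30 min dark incubation, luminescence.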
uPA surface inh: blocks generation of uPA at the cell surface; Potency, µM (titrated, usually from 38.3 µM), usual class: inhibitors; actives 0.31% (n = 330,000); cell surface uPA generation assay, qHTS; active = well fitted inhibition curve with a large enough effect; inconclusive = small, poorly fitted or top-dose-only effect; inactive = no such curve, though single readings can be large or run the other way; tested in mouse RAW 264.7 cells; also: nearly all actives have a fitted effect of over 55% in size
TDP1 block: TDP1 (human) enzyme inhibition; actives 0.28% (n = 350,000); AID 485290; Q9NUW8; Potency, µM (titrated, usually from 130 µM), most hits filed as inhibitors; recombinant TDP1, AlphaScreen DNA substrate cleavage; also: nearly all actives have a fitted effect of over 40% in size
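Recombinant human Tdp1 (E. coli-expressed, 1 nM final) preincubated with compounds 15 min at room temperature, then 5'-biotin/3'-phosphotyrosine-FITC DNA substrate (15 nM final) added for 5 min. AlphaScreen beads (10 ug/ml final) added 10 min; cleavage lowers signal.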
Large screens that a line does not name were inactive; ! = a repeat was not active. Hits are enriched below; roughly 16% of the tested compounds scored in any of these assays. Unless noted, calls follow the shape of the dose curve; as a rule, active = well fitted curve in the direction sought with a large enough effect; inconclusive = small, poorly fitted or top-dose-only effect, or another doubt; inactive = no such curve, though single readings can be large; an effect the other way counts as inactive or inconclusive.

CS/C(=C\[N+](=O)[O-])Nc1ccc(Cl)cc1	none
CCOC(=O)C1(C)CCCN1C(=O)c1ccc(Cl)nc1 (configuration not stated)	none (no result: miR-21 reporter, uPA surface inh, TDP1 block)
CC(C)C[C@H](N)c1nnc(S(=O)(=O)Cc2ccc(F)cc2)o1	TDP1 cell CPT 1.3µM, miR-21 reporter inconclusive, TDP1 cell noCPT 2.06µM
Cc1ccc(NC(=O)CSc2nnc(CCC(=O)O)c(=O)[nH]2)cc1	none
COc1ccc(-c2cn3c(n2)sc2cc(C(=O)Nc4cc(OC)cc(OC)c4)ccc23)cc1	none (no result: uPA surface inh)
CCOC(=O)N1CCC(NC(=O)c2ccc3c(c2)sc2nc(-c4ccc(OC)cc4)cn23)CC1	none (no result: TDP1 cell CPT, TDP1 cell noCPT, uPA surface inh)
COc1ccc(-c2cn3c(n2)sc2cc(C(=O)NCCCN4CCN(C)CC4)ccc23)cc1	TDP1 cell CPT 1.16µM, TDP1 cell noCPT 1.3µM (no result: uPA surface inh)
CCCN1CCN(CCCNC(=O)c2ccc3c(c2)sc2nc(-c4ccc(OC)cc4)cn23)CC1	TDP1 cell CPT 1.46µM, TDP1 cell noCPT 1.03µM (no result: uPA surface inh)
Cc1c(-c2nc(N)nc(Nc3ccccc3F)n2)oc2ccccc12	TDP1 cell CPT inconclusive, TDP1 cell noCPT 18.4µM
Cc1ccc(Nc2nc(N)nc(-c3oc4ccccc4c3C)n2)cc1	TDP1 cell CPT 0.206µM, TDP1 cell noCPT 0.058µM
Cc1cccc(Nc2ncnc(N)n2)c1	none (no result: TDP1 block)
CCc1nc(Nc2cccc(OC)c2)c2oc3ccccc3c2n1	TDP1 cell CPT inconclusive, TDP1 cell noCPT inconclusive (no result: TDP1 block)
COc1ccccc1Nc1nc(N)nc(-c2cc3ccccc3o2)n1	TDP1 cell noCPT inconclusive
COc1cccc(Nc2nc(N)nc(-c3oc4ccccc4c3C)n2)c1	TDP1 cell CPT 6.51µM, TDP1 cell noCPT 8.2µM (no result: uPA surface inh)
Cc1cccc(Nc2nc(N)nc(-c3oc4ccccc4c3C)n2)c1	TDP1 cell CPT inconclusive, TDP1 cell noCPT 25.9µM
Cc1onc(-c2ccccc2)c1C(=O)Nc1nnc(N2CCCCCC2)s1	TDP1 cell noCPT inconclusive
Cc1cnc2c3c(cc(Cl)c2c1)-c1ccccc1S(=O)(=O)N3	none (no result: TDP1 cell CPT, miR-21 reporter, TDP1 cell noCPT, uPA surface inh)
O=S1(=O)Nc2c(ccc3cccnc23)-c2ccccc21	TDP1 cell CPT 1.16µM, miR-21 reporter inconclusive, TDP1 cell noCPT 1.46µM, uPA surface inh inconclusive
CC(C)CC(=O)N1CC=CC[C@@H](c2ccc(Cl)cc2)N(Cc2ccc(Cl)cc2)C(=O)[C@@H]1Cc1ccccc1	TDP1 cell CPT 14.6µM, TDP1 cell noCPT 13µM (no result: miR-21 reporter, TDP1 block)
O=C1[C@H](Cc2ccccc2)NCCCC[C@H](c2ccc(Cl)cc2)N1Cc1ccccc1	TDP1 cell CPT inconclusive, TDP1 cell noCPT 15.8µM! (no result: miR-21 reporter, TDP1 block)
O=C1[C@H](Cc2ccccc2)NCC=CC[C@@H](c2ccco2)N1Cc1ccccc1	TDP1 cell CPT inconclusive, TDP1 cell noCPT inconclusive (no result: miR-21 reporter, TDP1 block)
O=C1N[C@@H](Cc2ccccc2)C(=O)N2CCCC12 (some centres not stated)	none (no result: miR-21 reporter)
O=C1[C@H](Cc2ccccc2)NCCCC[C@@H](c2ccco2)N1Cc1ccccc1	TDP1 cell CPT inconclusive, TDP1 cell noCPT 12.6µM! (no result: miR-21 reporter, TDP1 block)
O=C1[C@H](Cc2ccccc2)NC/C=C\C[C@@H](c2ccco2)N1Cc1ccccc1	TDP1 cell CPT inconclusive, TDP1 cell noCPT 14.1µM (no result: miR-21 reporter, uPA surface inh, TDP1 block)
O=C1[C@H](Cc2ccccc2)NCCCC[C@@H](c2ccc(Cl)cc2)N1Cc1ccc(Cl)cc1	TDP1 cell CPT inconclusive, TDP1 cell noCPT inconclusive (no result: miR-21 reporter, TDP1 block)
COC(=O)C1=C(C)N(Cc2ccccc2)[C@]23O[C@](C(=O)OC)(C(=O)N2C1c1ccccc1)C(C(=O)OC)=C3C(=O)OC (some centres not stated)	none (no result: TDP1 cell CPT, miR-21 reporter, TDP1 cell noCPT, uPA surface inh)
COC(=O)C1=C(C(=O)OC)[C@]2([C@H]3CC=CCN[C@@H](Cc4ccccc4)C(=O)N3Cc3ccccc3)C=C[C@H]1O2	TDP1 cell CPT 18.4µM, TDP1 cell noCPT 14.6µM, uPA surface inh inconclusive (no result: miR-21 reporter, TDP1 block)
O=C1[C@H](Cc2ccccc2)NCCCC[C@H](c2ccco2)N1Cc1ccccc1	TDP1 cell CPT 13µM, TDP1 cell noCPT 20.6µM (no result: miR-21 reporter, TDP1 block)
O=C1[C@H](Cc2ccccc2)NC/C=C\C[C@@H](c2ccc(Cl)cc2)N1Cc1ccccc1	TDP1 cell CPT 12.6µM, TDP1 cell noCPT 11.2µM (no result: miR-21 reporter, uPA surface inh, TDP1 block)
Brc1ccc2oc3c(N4CCOCC4)ncnc3c2c1	TDP1 cell CPT inconclusive, TDP1 cell noCPT 11.6µM
NNC(=O)c1cccn(Cc2cccc(C(F)(F)F)c2)c1=O	TDP1 cell CPT 14.6µM, TDP1 cell noCPT inconclusive (no result: TDP1 block)
CNC(=O)c1ccc(=O)n(Cc2cccc(C(F)(F)F)c2)c1	none
O=C(Nc1ccc(F)cc1)c1ccccc1S(=O)(=O)c1ccccc1[N+](=O)[O-]	none
CCSc1nc(=S)cc(C)[nH]1	TDP1 cell CPT inconclusive, TDP1 cell noCPT 20.6µM
CCS(=O)(=O)N1CCN(c2ccnc3cc(Cl)ccc23)CC1	TDP1 cell noCPT inconclusive
NC(=O)/C(N=Nc1ccccc1)=N/Nc1ccccc1	TDP1 cell CPT 18.4µM, TDP1 cell noCPT inconclusive (no result: miR-21 reporter)
COC(=O)Cn1c(C(=O)N(C)C)cc2c1C[C@H]1CN(C(=O)c3ccccc3)[C@@](Cc3ccc(F)cc3)(C(=O)OC)[C@@H]21	TDP1 cell CPT inconclusive, TDP1 cell noCPT inconclusive (no result: miR-21 reporter, uPA surface inh)
Cc1c(C=O)c2ccccn2c1C(=O)c1ccc(Cl)c([N+](=O)[O-])c1	TDP1 cell CPT inconclusive, TDP1 cell noCPT 16.4µM
Cc1cc2ccccn2c1C(=O)c1ccc(Cl)c([N+](=O)[O-])c1	TDP1 cell CPT 20.6µM, TDP1 cell noCPT inconclusive
Cc1cc2ccccn2c1C(=O)c1ccc([N+](=O)[O-])o1	TDP1 cell CPT 23.1µM, TDP1 cell noCPT 18.4µM
COc1ccc(C(=O)c2ccc(Cl)c([N+](=O)[O-])c2)cc1	TDP1 cell CPT 0.82µM, TDP1 cell noCPT 0.731µM
COc1ccc(C(=O)c2ccc(Cl)cc2)cc1	TDP1 cell noCPT inconclusive
Cc1c(C=O)c2ccccn2c1C(=O)c1ccccc1	TDP1 cell noCPT inconclusive
CCCCOc1ccc(NC(=S)Nc2cc(C)nc(SCCCC)n2)cc1	TDP1 cell CPT 5.8µM, TDP1 cell noCPT 2.91µM
CC1=NNC(=O)C1CC(=O)N/N=C/C(Br)=C/c1ccccc1 (configuration not stated)	TDP1 cell CPT 20.6µM, TDP1 cell noCPT 20.6µM
CC1=NNC(=O)C1CCC(=O)N/N=C/c1ccco1 (configuration not stated)	none
CC1=NNC(=O)C1CC(=O)N/N=C/c1cccs1 (configuration not stated)	none
CC1=NNC(=O)C1CCC(=O)N/N=C/C(Br)=C/c1ccccc1 (configuration not stated)	TDP1 cell CPT 2.91µM, TDP1 cell noCPT 2.06µM
CC1C(=O)NN=C1C(=O)N/N=C\C(Br)=C\c1ccccc1 (configuration not stated)	TDP1 cell CPT 6.51µM, TDP1 cell noCPT 14.6µM
CC1C(=O)NN=C1C(=O)N/N=C/c1ccco1 (configuration not stated)	TDP1 cell CPT inconclusive, TDP1 cell noCPT inconclusive
COc1ccc(Br)cc1S(=O)(=O)NCCc1cccs1	none (no result: miR-21 reporter)

Compound activity: PubChem BioAssay, National Center for Advancing Translational Sciences (NCATS)
